System: CLL cells
Experiment: Viability of CLL cells in culture, erythrocin B exclusion assay
Format: cell-based, human
Settings: 10 nM of the agent plus 50 μM etodolac; FIG. 4

Nc1nc(Cl)nc2c1ncn2[C@H]1C[C@H](O)[C@@H](CO)O1 [2-chlorodeoxyadenosine, 2-chloro-2′-deoxyadenosine]
synergy with 50 μM etodolac against CLL cells: synergy

Nc1nc(F)nc2c1ncn2[C@@H]1O[C@H](CO)[C@@H](O)[C@@H]1O [fludarabine]
synergy with 50 μM etodolac against CLL cells: synergy

From patent publication US20040152672A1, “Indole compounds useful for the treatment of cancer” (priority 2000, published 2004)
